Data as given in paper PMC6539809, “Development of Oxygen-Bridged Pyrazole-Based Structures as Cannabinoid Receptor 1 Ligands” (Molecules, 2019).

Protein sequences, listed by entry. Tags and fused reporters are not part of them.
UniProt P47746, whole entry: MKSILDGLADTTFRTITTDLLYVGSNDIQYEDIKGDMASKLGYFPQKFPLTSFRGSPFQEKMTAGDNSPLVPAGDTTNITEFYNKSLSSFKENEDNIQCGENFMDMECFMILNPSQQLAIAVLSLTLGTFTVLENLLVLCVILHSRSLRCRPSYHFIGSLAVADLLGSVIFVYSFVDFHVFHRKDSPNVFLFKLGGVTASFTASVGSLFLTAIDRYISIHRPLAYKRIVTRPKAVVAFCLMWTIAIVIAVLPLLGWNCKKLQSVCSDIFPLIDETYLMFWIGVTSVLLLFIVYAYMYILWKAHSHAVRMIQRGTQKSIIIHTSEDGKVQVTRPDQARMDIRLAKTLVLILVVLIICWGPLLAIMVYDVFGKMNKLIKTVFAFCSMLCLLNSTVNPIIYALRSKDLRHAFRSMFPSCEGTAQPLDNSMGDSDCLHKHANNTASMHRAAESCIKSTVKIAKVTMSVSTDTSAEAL

Molecular target: T1, CB1Rs of mouse vas deferens (Mus musculus, UniProt P47746)
T1 construct: naturally expressed prejunctional neuronal CB1Rs; from tissue; host or cells: isolated vas deferens of male albino CD1 mice
Assay: Isolated organ assay: electrically evoked contractions of mouse vas deferens
Settings: cumulative concentration-response curve

Cc1c(C(=O)c2cccc3ccccc23)c2cccc3c2n1[C@H](CN1CCOCC1)CO3 [WIN 55,212-2, reference compound]
Maximum inhibition of the amplitude of electrically-evoked contractions: approximately 100%
